Assays:
[1] = test system: guinea pigs; experiment: Inhibitory activity assay against ear swelling in guinea pigs (DMSO/ethanol inflammatory agent); details: topical, 200 µL per ear; test compounds and glycyrrhetinic acid 40 mg/mL in absolute ethanol; hydrocortisone butyrate cream 1 mg/g; 45 min after modeling
Excerpt: • 2.1 Animals: Ordinary grade guinea pigs, weighing about 300 g. • 2.2 Reagents: Inflammatory agent made from 80% dimethyl sulfoxide (DMSO) and 20% absolute ethanol; DMSO; absolute ethanol, analytical grade.
Ordinary grade guinea pigs were randomly divided into groups, with 10 animals in each group, half male and half female. The inner and outer sides of the left and right ears of the guinea pigs were shaved, and 4 points were marked on the medial side of the left ear margin. The thickness of these 4 points on the auricle of the guinea pigs was measured using a vernier caliper, and the average value was obtained as the baseline before administration. The corresponding drugs were applied dropwise to the auricles of the guinea pigs in each test group (Compound 1, Compound 2, Compound 3, Compound 9, Compound 16, Compound 17, Compound 18, Compound 21) and the glycyrrhetinic acid group, with 200 µL per ear. The blank control group and the model group were treated with the corresponding volume of absolute ethanol only. The positive control hydrocortisone butyrate group was treated with an equal volume of hydrocortisone butyrate cream. After 30 min of administration, the drugs were wiped off. The animals in the model group and the test groups were treated with the inflammatory agent on both sides of the left auricle (50 µL per ear). The blank control group was treated with the corresponding volume of normal saline only. At 45 min after modeling, the thickness of these 4 points was measured using a vernier caliper, and the average value was obtained. The difference was calculated as the ear swelling value of the guinea pigs. Inhibition rate of swelling value = (Swelling value of the model group - Swelling value of the sample group) / Swelling value of model group × 100%, wherein the sample group includes each test group, glycyrrhetinic acid group, and positive control hydrocortisone butyrate group.
• Test compounds and glycyrrhetinic acid: Dissolved in absolute ethanol to prepare a solution with a concentration of 40 mg/mL. • Positive control: Commercially available hydrocortisone butyrate cream (from Hubei Heng'an Fulin Pharmaceutical Co., Ltd., specification: 1 mg/g).

[2] = Body weight in the atopic dermatitis assay; details: for effect on the body weight of mice: result in words, atopic dermatitis model
Method: (§1) The backs of BALB/c mice were shaved. Except for the blank control group, the mice were topically treated with DNFB solution (solvent: mixture of acetone and olive oil, volume ratio 4:1) for sensitization and challenge. No treatment was administered on days 3 to 6. From day 7, the solution was applied once every 2 days for a total of 10 applications, and modeling was completed after the 10th application. The model animals were evenly divided into groups according to the observation scores of skin lesions, with 8 mice in each group. Subsequently, the test groups (Compound 1, Compound 16) received the corresponding drugs at 150 µL per time, twice daily. The model group received the corresponding volume of blank matrix (pimecrolimus cream matrix) at the same dosing frequency. The observation scores of skin lesions were recorded on days 3, 6, and 10 (six items were scored: erythema/darkening, edema/papules, exudation/crusting, erosion, lichenification/prurigo, and dryness, and the total score was the sum of the six individual scores; scoring was performed according to the SCORAD scoring criteria: scores 0 to 3, where score 0: none; score 1: mild; score 2: moderate; score 3: severe). Body weights were measured on days 0, 3, 6, and 10 after modeling.

[3] = test system: HaCaT cells; experiment: In vitro inhibition of ROS release assay (8 Gy X-ray, flow cytometry); details: result in words
Method: • Culture medium: DMEM containing 10% FBS; • Test article: Compound 16; control drugs: triethanolamine, hydrocortisone butyrate; • Reagent: ROS assay kit (Beyotime); • Instruments: RS 2000·Pro 225 Rad Source X-ray irradiator; flow cytometer.
The cells were divided into a blank control group, a model group, a Compound 16 group, a triethanolamine group, and a hydrocortisone butyrate group, with 3 replicate wells per group. The cells were cultured in DMEM containing 10% FBS in a 37°C, 5% CO2 incubator. The blank control group and the model group were treated with the corresponding volume of blank solvent (DMSO) only. The Compound 16 group was treated with 0.5 µM Compound 16. The triethanolamine group was treated with 0.5 µM triethanolamine. The hydrocortisone butyrate group was treated with 10 nM hydrocortisone butyrate.
At the end of administration, the cells in the model group, the Compound 16 group, the triethanolamine group, and the hydrocortisone butyrate group were exposed to 8 Gy X-ray irradiation. The blank control group received no irradiation. The intracellular ROS levels in each group were detected by flow cytometry 24 h after irradiation, according to the instructions of the ROS assay kit.

[4] = test system: BALB/c mice; experiment: Atopic dermatitis assay (DNFB), SCORAD score; details: for Score (SCORAD): 3% cream, 150 µL twice daily; for SCORAD score in the mouse atopic dermatitis model: result in words, compared with the model group
Method: • 4.1 Animals: BALB/c mice, female, 20+2 g. • 4.2 Reagent: 2,4-Dinitrofluorobenzene (DNFB).
as §1
Test compounds: The formulations were prepared with reference to pimecrolimus cream (test compound concentration: 3%).

[5] = test system: RAW264.7 cells; experiment: Anti-inflammatory activity assay in cells (LPS-induced IL-1β content, ELISA); details: LPS 100 ng/mL, 24 h
Method: • 1.1 Cells: RAW264.7 cells, purchased from PROCELL, lot No.: JYBR1POD9R. • 1.2 Reagents: Lipopolysaccharide (LPS), purchased from SIGMA; DMEM cell culture medium, purchased from GIBCO; Mouse IL-1β ELISA Kit, purchased from Ruixin Bio.
RAW264.7 cells were seeded into a 96-well plate at 1×10^5 cells/well, with 100 µL of cell suspension added to each well. 50 µL of drugs at corresponding gradient concentrations (0.00128, 0.0064, 0.032, 0.16, 0.8, 4, 20, and 100 µM, respectively) were added to the wells of the test groups (Compounds 1 to 27) and the control drug groups (glycyrrhetinic acid and Comparative Compounds 1 to 10). The corresponding volume of culture medium was added to the wells of the blank control group and the model group. After 1 h of incubation, 50 µL of LPS (final LPS concentration of 100 ng/mL) was added to the wells of the model group, the control drug groups, and the test groups. After incubation in an incubator at 37°C and 5% CO2 for 24 h, the supernatant was collected by centrifugation at 1000 rpm for 5 min. The IL-1β content was determined according to the instructions of the kit, and the IC50 values were calculated.

Molecule	IC50 [5]	Ear swelling inhibition rate [1]	Body weight of animals ([2]; Day 0)	Body weight of animals ([2]; Day 3)	Body weight of animals ([2]; Day 6)	Body weight of animals ([2]; Day 10)	effect on the body weight of mice [2]	intracellular ROS levels [3]	Score (SCORAD) ([4]; Day 0)	SCORAD score in the mouse atopic dermatitis model [4]	Score (SCORAD) ([4]; Day 6)
CCN(CC)CCOC(=O)[C@@]1(C)CC[C@]2(C)CC[C@]3(C)C(=CC(=O)[C@@H]4[C@@]5(C)C=C(C#N)C(=O)C(C)(C)[C@@H]5CC[C@]43C)[C@@H]2C1	< 0.02 µM	B (greater than 40% and less than or equal to 70%)					no significant effect	significantly reduce		significantly reduce	
CCN(CC)CCOC(=O)[C@@]1(C)CC[C@]2(C)CC[C@]3(C)C(=CC(=O)[C@@H]4[C@@]5(C)CCC(=O)C(C)(C)[C@@H]5CC[C@]43C)[C@@H]2C1.Cl		B (greater than 40% and less than or equal to 70%)					no significant effect	significantly reduce		significantly reduce	
CN(C)c1nc2c(s1)C[C@]1(C)[C@H]3C(=O)C=C4[C@@H]5C[C@@](C)(C(=O)O)CC[C@]5(C)CC[C@@]4(C)[C@]3(C)CC[C@H]1C2(C)C	0.02 to 0.1 µM	A (greater than 70%)					no significant effect	significantly reduce		significantly reduce	
CCN(CC)CCOC(=O)[C@@]1(C)CC[C@]2(C)CC[C@]3(C)C(=CC(=O)[C@@H]4[C@@]5(C)CCC(=O)C(C)(C)[C@@H]5CC[C@]43C)[C@H]2C1	< 0.02 µM	A (greater than 70%)					no significant effect	significantly reduce		significantly reduce	
CC1(C)C(=O)C(Cl)=C[C@]2(C)[C@H]3C(=O)C=C4[C@H]5C[C@@](C)(C(=O)O)CC[C@]5(C)CC[C@@]4(C)[C@]3(C)CC[C@@H]12	< 0.02 µM	A (greater than 70%)					no significant effect	significantly reduce		significantly reduce	

Now from value to molecule, other results behind:

IC50 [5]	Molecule	Ear swelling inhibition rate [1]	Body weight of animals ([2]; Day 0)	Body weight of animals ([2]; Day 3)	Body weight of animals ([2]; Day 6)	Body weight of animals ([2]; Day 10)	effect on the body weight of mice [2]	intracellular ROS levels [3]	Score (SCORAD) ([4]; Day 0)	SCORAD score in the mouse atopic dermatitis model [4]	Score (SCORAD) ([4]; Day 6)
< 0.02 µM	CCN(CC)CCOC(=O)[C@@]1(C)CC[C@]2(C)CC[C@]3(C)C(=CC(=O)[C@@H]4[C@@]5(C)CCC(=O)C(C)(C)[C@@H]5CC[C@]43C)[C@@H]2C1	A (greater than 70%)	20.01 ± 0.84 g	19.45 ± 0.99 g	19.05 ± 1.16 g	18.86 ± 0.95 g	no significant effect	significantly reduce	16.56 ± 0.50	significantly reduce	
< 0.02 µM	CC1(C)C(=O)C(Cl)=C[C@]2(C)[C@H]3C(=O)C=C4[C@@H]5C[C@@](C)(C(=O)O)CC[C@]5(C)CC[C@@]4(C)[C@]3(C)CC[C@@H]12	A (greater than 70%)	20.25 ± 1.34 g	19.91 ± 1.41 g	19.88 ± 1.14 g	20.55 ± 1.23 g	no significant effect	significantly reduce	16.69 ± 0.46	significantly reduce	7.56 ± 1.47
< 0.02 µM	(2S,4aS,6aS,6bR,8aR,12aS,12bR,14bR)-11-chloro-2,4a,6a,6b,9,9,12a-heptamethyl-10,13-dioxo-1,2,3,4,4a,5,6,6a,6b,7,8,8a,9,10,12a,12b,13,14b-octadecahydropicene-2-carboxylate triethanolamine salt	B (greater than 40% and less than or equal to 70%)					no significant effect	significantly reduce		significantly reduce	
